The values that follow come from PubChem BioAssay AID588453 (National Center for Advancing Translational Sciences (NCATS), 2011).

Protein sequences, listed by entry. Tags and fused reporters are not part of them.
UniProt O89049, whole entry: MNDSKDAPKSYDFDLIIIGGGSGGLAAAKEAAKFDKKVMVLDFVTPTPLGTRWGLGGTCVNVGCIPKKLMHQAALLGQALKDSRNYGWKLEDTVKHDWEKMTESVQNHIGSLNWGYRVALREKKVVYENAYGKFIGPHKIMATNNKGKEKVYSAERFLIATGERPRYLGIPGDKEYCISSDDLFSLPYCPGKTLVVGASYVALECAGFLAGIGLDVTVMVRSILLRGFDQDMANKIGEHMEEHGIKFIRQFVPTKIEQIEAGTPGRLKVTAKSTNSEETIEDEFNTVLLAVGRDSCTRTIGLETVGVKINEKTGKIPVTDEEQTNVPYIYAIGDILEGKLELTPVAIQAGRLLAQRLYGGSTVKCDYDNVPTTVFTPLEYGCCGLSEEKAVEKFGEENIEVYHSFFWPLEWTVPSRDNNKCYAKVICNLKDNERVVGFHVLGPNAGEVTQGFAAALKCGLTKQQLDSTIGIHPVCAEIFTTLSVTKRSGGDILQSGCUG

SMILES strings stand for the structures. The list shows a part of the results, in another mix than the full data. Results filed as inconclusive are left out. A call without a number means that no potency is given here. Active and inactive are the calls of the source. Calls come from the whole dose curve; as a rule, active = well fitted inhibition curve with a large enough effect; inconclusive = small, poorly fitted or top-dose-only effect; inactive = no such curve, though single readings can be large or run the other way.
Potency is the fitted concentration of half-maximal effect.

For the test, the target named is Thioredoxin reductase 1, cytoplasmic (Rattus norvegicus) (UniProt O89049). Put plainly: qHTS Assay for Inhibitors of Mammalian Selenoprotein Thioredoxin Reductase 1 (TrxR1): qHTS. Note: nearly all actives have a fitted effect of over 65% in size. As to conditions: recombinant rTrxR1, NADPH fluorescence consumption, selenite substrate; series mostly up to 114 µM. (qHTS replaces the single test concentration by a dilution series.)
Take `Cc1c(C(c2ccc3c(c2)OCO3)c2c(C)n(C)n(-c3ccccc3)c2=O)c(=O)n(-c2ccccc2)n1C.O=[N+]([O-])c1cc([N+](=O)[O-])c(O)c([N+](=O)[O-])c1`: the Potency entry was “inactive”. Same read-out and setting: next, `O=[N+]([O-])c1ccc(OP2(=O)COCCO2)cc1` (configuration not stated): “inactive”.

Turning to `Cc1cc(-c2cccc3ccccc23)c(C)cn1.O=[N+]([O-])c1cc([N+](=O)[O-])c(O)c([N+](=O)[O-])c1`, the Potency result was “inactive”. Still for that read-out and setting: next, `CN(C)CCOC(=O)C(O)(c1ccccc1)C1CCCCC1` (configuration not stated): “inactive”; `COc1ccc(NP(C)(=O)Oc2ccccc2OC)cc1` (configuration not stated): “inactive”; `COc1ccc(OP(C)(=O)Nc2cccc(Br)c2)cc1` (configuration not stated): “inactive”.

For `Cc1ccccc1NP(C)(=O)Nc1ccccc1C`, the Potency entry was “inactive”.

On to `CP(=O)(Nc1ccc2c(c1)OCCO2)Oc1ccccc1` (configuration not stated), for which the Potency result was “inactive”.

In the case of `CCOP(C)(=S)SCC(=O)NC(C)(CC)C(=O)O` (configuration not stated), the Potency entry was “inactive”. As for `O=C(OCCN1CCN(CCOCc2ccccc2)CC1)C(O)(c1ccccc1)c1ccccc1`, the Potency result was “inactive”. Same read-out and setting: next, `CP(=O)(Nc1ccccc1F)Oc1ccccc1` (configuration not stated): “inactive”; `CC(C)c1ccc(OP(C)(=O)Nc2ccc(SC(F)(F)F)cc2)cc1` (configuration not stated): “inactive”; `CCCCCOc1ccc(NP(C)(=O)Oc2ccc(Cl)cc2Cl)cc1` (configuration not stated): “inactive”. Still for that read-out and setting: next, `CCN(CC)CCCOC(=O)C(O)(c1ccccc1)C1CCCCC1` (configuration not stated): “inactive”. The same measure, in the same setting: next, `CCOC(=O)c1ccc(NP(C)(=O)Oc2ccc(F)cc2)cc1` (configuration not stated): “inactive”; `COc1ccc(OP(C)(=O)Nc2ccc(SC(F)(F)F)cc2)cc1` (configuration not stated): “inactive”. `CCCCCCCCCCCCCCCC1C[N+](C)(C)CCOP(C)(=O)O1` (configuration not stated): the activity change, negative = inhibition is inactive: 18.7% [at 11.4 µM]. With `CP(=O)(Nc1ccc(Cl)cc1Cl)Oc1ccccc1` (configuration not stated), the Potency entry was “inactive”. Take `CP(=O)(OCCOc1ccccc1)OCCOc1ccccc1`: the Potency entry was “inactive”. Take `COc1ccccc1OP(C)(=O)Nc1ccc(C)c(C)c1` (configuration not stated): the Potency result is “inactive”. The same measure, in the same setting: next, `COc1ccc(OP(C)(=O)Nc2ccccc2Br)cc1` (configuration not stated): “inactive”; `Cc1cc(C)cc(OP(C)(=O)Nc2cccc(C(F)(F)F)c2)c1` (configuration not stated): “inactive”; `CP(=O)(Nc1ccccn1)Oc1ccccc1` (configuration not stated): “inactive”. On the same count and under the same terms, the same measure for `COc1ccccc1OP(C)(=O)Nc1ccc(C)cc1C` (configuration not stated): “inactive”; for `CCc1ccc(OP(C)(=O)O)cc1`: “inactive”. Consider `Cc1c(NP(C)(=O)Oc2ccc(C(C)C)cc2)c(=O)n(-c2ccccc2)n1C` (configuration not stated), for which the Potency entry is “inactive”. Turning to `O=[N+]([O-])c1cc([N+](=O)[O-])c(Nc2ccccn2)c([N+](=O)[O-])c1`, the Potency result is “inactive”. Consider `COc1ccc(OP(C)(=O)Nc2ccccn2)cc1` (configuration not stated), for which the Potency entry was “inactive”. With `CN(C)CCOC(=O)C(O)(c1ccccc1)C1CCCC1` (configuration not stated), the Potency result was “inactive”. Turning to `COc1ccccc1OP(C)(=O)Nc1ccc(Br)cc1` (configuration not stated), the Potency entry is “inactive”. For `CN(C)C(=O)c1c([N+](=O)[O-])cc([N+](=O)[O-])cc1[N+](=O)[O-]`, the Potency result is “inactive”. Same read-out and setting: the same measure for `COc1ccccc1OP(C)(=O)Nc1ccccc1Br` (configuration not stated): “inactive”. Still for that read-out and setting: the same measure for `CC(C)(C)c1ccc(OP(C)(=O)O)cc1`: “inactive”; for `CP(=O)(Nc1ccc(Cl)cc1)Oc1ccc(F)cc1` (configuration not stated): “inactive”. Turning to `COc1ccccc1OP(C)(=O)Nc1c(C)n(C)n(-c2ccccc2)c1=O` (configuration not stated), the Potency result was “inactive”.

On to `O=C(OCCCN1CCCC1)C(O)(c1ccccc1)C1CCCCC1` (configuration not stated), for which the Potency result is “inactive”. Same read-out and setting: the same measure for `CP(=O)(Oc1ccccc1)N1CCOC1=O` (configuration not stated): “inactive”; for `CCc1ccc(OP(C)(=O)Nc2cccnc2)cc1` (configuration not stated): “inactive”; for `CCN(CC)CC(O)COC(=O)C(O)(c1ccccc1)C1CCCCC1` (configuration not stated): “inactive”.

Take `COc1ccc(OP(C)(=O)Nc2ccc(Br)cc2)cc1` (configuration not stated): the Potency result was “inactive”. For the compound `CCOC(=O)c1ccc(NP(C)(=O)Oc2ccc(Cl)cc2)cc1` (configuration not stated), the Potency entry was “inactive”. Still for that read-out and setting: the same measure for `CP(=O)(OC12CC3CC(CC(C3)C1)C2)OC12CC3CC(CC(C3)C1)C2`: “inactive”. Still for that read-out and setting: the same measure for `Nc1ccc2c(ccc3cccnc32)n1.O=[N+]([O-])c1cc([N+](=O)[O-])c(O)c([N+](=O)[O-])c1`: “inactive”; for `CP(=O)(Nc1ccccc1Br)Oc1ccccc1` (configuration not stated): “inactive”. The same measure, in the same setting: next, `COc1ccccc1OP(C)(=O)Nc1ccccc1` (configuration not stated): “inactive”; `CP(=S)(Nn1cnnc1)Oc1ccccc1` (configuration not stated): “inactive”; `CP(=O)(Nc1ccccn1)Oc1ccc(Cl)cc1` (configuration not stated): “inactive”. Take `CCOC(=O)c1ccc(NP(C)(=O)Oc2ccc(OC)cc2)cc1` (configuration not stated): the Potency entry was “inactive”.

For `O=[N+]([O-])c1cc([N+](=O)[O-])c(O)c([N+](=O)[O-])c1.c1ccc(Oc2ccncc2)cc1`, the Potency entry was “inactive”. The same measure, in the same setting: the same measure for `CCOP(C)(=S)SCC(=O)NC(C)C(=O)O` (configuration not stated): “inactive”; for `CP(=O)(NC(=O)Nc1ccccc1)Oc1ccccc1` (configuration not stated): “inactive”; for `CCc1ccc(OP(C)(=O)N2CCN(c3ccc([N+](=O)[O-])cc3)CC2)cc1` (configuration not stated): “inactive”. For `Cc1cc(C)cc(OP(C)(=O)Nc2ccc(SC(F)(F)F)cc2)c1` (configuration not stated), the Potency result was “inactive”.

Take `Cc1cccc(C)c1OP(C)(=O)Nc1ccc(SC(F)(F)F)cc1` (configuration not stated): the Potency entry is “inactive”.

On to `CP(=O)(Nc1ccc(SC(F)(F)F)cc1)Oc1ccc(Cl)cc1` (configuration not stated), for which the Potency result was “inactive”.

For the compound `CP(=O)(Oc1ccccc1)OC(c1ccccc1)C(F)(F)F` (configuration not stated), the Potency result was “inactive”. Same read-out and setting: next, `CCN(CC)CCCOC(=O)C(O)(c1ccccc1)c1ccccc1`: “inactive”. Take `Cc1cc(C)cc(OP(C)(N)=O)c1` (configuration not stated): the Potency result was “inactive”.

For the compound `COc1ccccc1OP(C)(=O)Nc1cc(Cl)ccc1C` (configuration not stated), the Potency entry is “inactive”. On the same count and under the same terms, the same measure for `COc1ccc(OP(C)(=O)Nc2cccc(F)c2)cc1` (configuration not stated): “inactive”. As for `COc1ccccc1OP(C)(=O)Nc1ccc(C)cc1` (configuration not stated), the Potency entry was “inactive”. On to `Cc1ccc(NP(C)(=O)Oc2ccccc2)c(C)c1` (configuration not stated), for which the Potency entry was “inactive”.

With `CCOC(=O)c1ccc(NP(C)(=O)Oc2ccccc2)cc1` (configuration not stated), the Potency entry was “inactive”.

For the compound `O=[N+]([O-])c1ccc2c(c1)C=Nc1ccccc1O2`, the Potency result was “inactive”.

Turning to `CC(C)(C)c1ccc(OP(C)(=O)Nc2ccc(SC(F)(F)F)cc2)cc1` (configuration not stated), the Potency entry is “inactive”. Regarding `Cc1cccc(C)c1OP(C)(N)=O` (configuration not stated), the Potency result was “inactive”. As to `O=[N+]([O-])c1cc([N+](=O)[O-])c(Nc2cccnc2)c([N+](=O)[O-])c1`, the Potency was active: 10 µM.

As for `CC1=NCCc2c1[nH]c1ccccc21.O=[N+]([O-])c1cc([N+](=O)[O-])c(O)c([N+](=O)[O-])c1`, the Potency entry was “inactive”. The same measure, in the same setting: next, `Cc1ccc(C)c(NP(C)(=O)Oc2ccccc2)c1` (configuration not stated): “inactive”; `Cc1cc(C)cc(OP(C)(=O)Nc2ccccn2)c1` (configuration not stated): “inactive”. The same measure, in the same setting: the same measure for `CP(=O)(Nc1cccc(Br)c1)Oc1ccccc1` (configuration not stated): “inactive”; for `CCOC(=O)c1ccc(NP(C)(=O)Oc2cc(C)cc(C)c2)cc1` (configuration not stated): “inactive”; for `Cc1cc(C)cc(OP(C)(=O)Nc2ccc(C)cc2C)c1` (configuration not stated): “inactive”. On to `COc1ccccc1OP(C)(=O)Nc1cccc(Br)c1` (configuration not stated), for which the Potency entry was “inactive”.

Turning to `Cc1nc2ccc3ccccc3c2s1.O=[N+]([O-])c1cc([N+](=O)[O-])c(O)c([N+](=O)[O-])c1`, the Potency result is “inactive”.

Regarding `O=[N+]([O-])c1cc([N+](=O)[O-])c(-c2cnn(-c3ccccc3)c2)c([N+](=O)[O-])c1`, the Potency entry was “inactive”. Same read-out and setting: the same measure for `CCCOc1ccc(NP(C)(=O)Oc2ccc(Cl)cc2)cc1` (configuration not stated): “inactive”; for `CP(=O)(Nc1ccc(SC(F)(F)F)cc1)Oc1ccccc1` (configuration not stated): “inactive”; for `COc1ccccc1OP(C)(=O)Nc1c(C)cccc1C` (configuration not stated): “inactive”. The same measure, in the same setting: the same measure for `CN1CCCCC1COC(=O)C1(O)c2ccccc2CCc2ccccc21` (configuration not stated): “inactive”; for `CC1=C2N=C(C=C3N=C(C(C)=C4[N-][C@@](C)([C@@H]5N=C1[C@](C)(CCC(=O)NC[C@@H](C)OP(=O)([O-])O[C@H]1[C@@H](O)[C@@H](n6cnc7cc(C)c(C)cc76)O[C@@H]1CO)[C@H]5CC(N)=O)[C@@](C)(CC(N)=O)[C@@H]4CCC(N)=O)[C@@](C)(CC(N)=O)[C@@H]3CCC(N)=O)C(C)(C)[C@@H]2CCC(N)=O.[C-]#N.[Co+3]`: “inactive”. In the case of `O=[N+]([O-])c1cc([N+](=O)[O-])c(Nc2nnnn2CCO)c([N+](=O)[O-])c1`, the Potency is active: 20 µM.
